Values of other authors in US8445533B2, “Andrographolide derivatives to treat viral infections” (Cornell Research Foundation, Inc., priority 2004, dated 2013).

Tested on: H9 cell
Conditions: cited from earlier work

dehydroandrographolide succinic acid monoester [DASM]
concentrations nontoxic to the H9 cell: 50 to 200 µg/mL
